Among the data in PubChem BioAssay AID580 (SRMLSC, 2007) are viability values, retold here.

This is a selection; strong and weak results do not stand in their true shares. Some of these compounds have results that are not shown, active ones among them. The source made the active and inactive calls.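 How the source made its calls: active means viability at or under a set limit in both replicates, limit being median viability minus 3 SD (cut at about 48% in these data, passing the limit was not always enough); inconclusive means at or under the limit in just one replicate; inactive means at or above the limit in both replicates.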

The nature of the test: H69AR cell proliferation blockers – human, duplicate replicates, primary screen (AID 580).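 Further: 100% = mean luminescence of untreated wells and 0% = no signal.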 As to conditions: H69AR lung tumor cells viability, ATP luminescence, 72 h; at 10 µM; hits give low values.
In general, viability refers to a read-out of living cells in per cent, often relative to untreated cells. Turning to `O=C(OC1CN2CCC1CC2)C(CO)(c1ccccc1)c1ccccc1` (stereo unspecified), the viability is inactive: 88.5%.
